These are literature values, as cited in US10130658B2, “Method of ex vivo enhancement of immune cell activity for cancer immunotherapy with a small molecule ablative compound” (Provectus Pharmatech, Inc., priority 2015, dated 2018).

The subject of this data set is melanoma.

In the case of “IL-2: interleukin-2, non-specific cytokine given intralesionally”, the systemic tumor-specific response result (human, in vivo) was “unable to elicit a systemic tumor-specific response”. Under “treated melanoma patients”, the complete responses is reported as 62.5%.
